Source: PubChem (several laboratories)
NALP1 yeast inh = NALP1 inhibition; S. cerevisiae NALP1/ASC/caspase-1 growth, X-gal OD620, 72 h; inhibition, % at 10 µM; 0.61% of 280,000 active; AID 2071; in the data active = inhibition mostly above about 24%, no sharp cut-off; inactive = mostly below about 32%
UUG fidelity = yeast start codon fidelity modulation | S. cerevisiae UUG-firefly luciferase reporter, luminescence/redox ratio | activity score, % at 18.7 µM | hit rate 0.13% among 350,000 | AID 602363;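 active means replicate mean at a twofold rise or more, about +100% in these data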;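 further: firefly luciferase made from a UUG start codon reports start codon fidelity; reporter light over untreated wells divided by growth signal over untreated wells; some hits fall short of that in this replicate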
MC4R ag barr = agonists of human melanocortin 4 receptor (MC4R) beta-arrestin; P32245; U2OS MC4R beta-arrestin complementation, luminescence; percent of melanotan II response, DMSO zero; activation, % at 8.9 µM; 0.98% of 360,000 active; AID 540308;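 active = activation above a per-plate cutoff, the mean activation of sample wells on that plate plus 3 SD, cut at about 8% in these data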
HDAC3 inhib = blocks human histone deacetylase 3 | O15379 | AID 2718 | 0.15% of 320,000 active | recombinant HDAC3, fluorogenic peptide/trypsin coupled, fluorescence | inhibition, % at 8.3 µM; in the data active = inhibition above about 26%, passing the limit was not always enough
MC4R antagonist = human MC4R antagonism in cAMP assay. P32245. MC4R-expressing cells, MTII-stimulated cAMP, LANCE TR-FRET. inhibition, % at 6.5 µM. 0.48% of 360,000 active. AID 540295;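 active = inhibition above its plate's cutoff, the mean of tested wells on that plate plus 3 SD, cut at about 29% in these data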;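 note: 0% = Melanotan II alone and 100% = Melanotan II plus saturating MCL0020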
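Material: human MC4R-expressing U2OS cells. Probe or stimulus: Melanotan II challenge. Dosing: 6.5 µM single dose. Times: 30-min compound, 1-h challenge, 1-h detection, room temperature. Technique: TR-FRET with Eu-cAMP and labeled anti-cAMP, 671 nm. Replication: singlicate.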
ALR inh = human ALR oxidase inhibition via reduced H2O2; purified ALR, DTT oxidation, H2O2 HRP-luminol luminescence; P55789; 290,000 tested, 3.8% active; AID 485317; inhibition, % (no concentration beside the values);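 active means mean and each replicate at 75% or more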;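 further: stock transfer was 7.5 nL into about 7.5 µL; 0% = neutral wells and 100% = wells with inactivated enzyme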
cAMP nonselect = nonselective cAMP signaling inhibitor, MC4R antagonist counter-screen; shares compounds with MC4R antagonist; parental U2OS, forskolin cAMP, LANCE TR-FRET; inhibition, % at 6.5 µM; 26% of 1,600 active;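 active = mean inhibition over triplicates above the low-control well mean plus 3 SD, set per campaign, cut at about 13% in these data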;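 note: signal is single emission at 671 nm which falls as cellular cAMP rises; 0% = forskolin-stimulated wells and 100% = buffer without forskolin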
MC4R antag conf = human MC4R cAMP antagonism confirmation; shares compounds with MC4R antagonist; MC4R-expressing cells, MTII-stimulated cAMP, TR-FRET; inhibition, % at 6.5 µM; 27% of 1,600 active; AID 602195; in the data active = inhibition above about 29%;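 note: 0% = agonist stimulated wells alone and 100% = agonist stimulated wells plus saturating reference antagonist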
Starred values were filed as active, the others as inactive; nt = no result given. Rows were chosen to be rich in hits. Some 4.2% of all compounds tested hit in one or more screens of this group.

Abbreviations – A = NALP1 yeast inh; B = UUG fidelity; C = MC4R ag barr; D = HDAC3 inhib; E = MC4R antagonist; F = ALR inh; G = cAMP nonselect; H = MC4R antag conf
1. COc1ccc(-n2c(SC3CCOC3=O)nc3ccccc32)cc1 (stereo not drawn)
  A = 16; B = -14; C = -1; D = -5; E = 42*; F = -2; G = 11; H = 23

2. O=C1OCCC1Sc1nc2ccccc2n1Cc1ccccc1 (stereo not drawn)
  A = -11; B = -20; C = -2; D = 1; E = 30*; F = -4; G = 10; H = 37*

3. O=C1OCCC1Sc1nnc(-c2ccc(F)cc2)n1Cc1ccccc1 (stereo not drawn)
  A = 38; B = -16; C = -2; D = 4; E = 32*; F = -2; G = 26*; H = 32*

4. COc1ccc(NC(=O)Nc2cccc3c2O[C@H](CN(C)C(=O)Nc2ccc4c(c2)OCO4)[C@H](C)CN([C@@H](C)CO)C3=O)cc1
  A = nt; B = -14; C = nt; D = nt; E = nt; F = nt; G = nt; H = nt

5. CN1c2ccc(-c3ccccc3F)cc2[C@@H]2[C@@H](CCN2S(=O)(=O)c2ccccc2)[C@@H]1CO
  A = nt; B = -2; C = nt; D = nt; E = nt; F = nt; G = nt; H = nt

6. S=c1[nH]ccc2ccccc12
  A = nt; B = -8; C = -2; D = nt; E = 29*; F = nt; G = -3; H = 0

7. CCOCc1c(C(=O)NC2=Nc3ccccc3NC(CC)=C2C(=O)OCC)oc2ccccc12
  A = 8; B = nt; C = 6; D = 0; E = 38*; F = -5; G = 25*; H = 17

8. CCOC(=O)C1=C(CC)Nc2ccccc2N=C1NC(=O)c1oc2ccccc2c1C
  A = 6; B = nt; C = 0; D = 7; E = 0; F = nt; G = nt; H = nt

9. COC(=O)C1=C(C(=O)OC)SC2(S1)C(C(=O)OC)=C(C(=O)OC)SC1=C2c2cccc(C)c2NC1(C)C
  A = 6; B = -7; C = 0; D = -4; E = 41*; F = -4; G = 11; H = 45*

10. CCOC(=O)C1(C)Oc2ccccc2C(C(=O)OC)=C1C(=O)OC (stereo not drawn)
  A = nt; B = -8; C = -2; D = nt; E = 3; F = nt; G = nt; H = nt

11. CN(C)C(=O)C[C@H]1CC[C@@H]2[C@H](COc3ccc(NC(=O)C4CC4)cc3C(=O)N2C)O1
  A = nt; B = -7; C = nt; D = nt; E = nt; F = nt; G = nt; H = nt

12. Cn1nc([N+](=O)[O-])nc1S(C)(=O)=O
  A = -21; B = nt; C = -2; D = nt; E = -3; F = nt; G = nt; H = nt

13. CS(=O)(=O)c1nc([N+](=O)[O-])nn1CCCc1ccccc1
  A = nt; B = nt; C = -2; D = -3; E = 34*; F = 10; G = 2; H = 24

14. O=C(CCl)NNC(=O)c1c(O)c2ccccc2[nH]c1=O
  A = 3; B = -23; C = 0; D = 5; E = 31*; F = 6; G = -1; H = -3

15. CCCCC(=O)NNC(=O)c1c(O)c2ccccc2[nH]c1=O
  A = 26; B = nt; C = -3; D = -4; E = -1; F = nt; G = nt; H = nt

16. O=C(CN1C(=O)NC2(CCCCC2)C1=O)NCc1cccs1
  A = 18; B = -8; C = 2; D = -7; E = -2; F = 1; G = nt; H = nt

17. O=C(CN1C(=O)C2CC=CCC2C1=O)NCc1cccs1 (stereo not drawn)
  A = -1; B = nt; C = -1; D = 10; E = 31*; F = -1; G = -3; H = 1

18. CCCN1C[C@@H](C)[C@@H](OC)CN(C)C(=O)c2ccc(NC(=O)c3cnccn3)cc2OC[C@H]1C
  A = nt; B = -5; C = nt; D = nt; E = nt; F = nt; G = nt; H = nt

19. CCCC(=O)Nc1ccc2c(c1)C(=O)N(C)C[C@@H](OC)[C@@H](C)CN(CCc1ccccc1)[C@H](C)CO2
  A = nt; B = 10; C = nt; D = nt; E = nt; F = nt; G = nt; H = nt

20. COc1ccc2sc(-c3ccc(N(C)C)cc3)c(C#CC(C)(C)O)c2c1
  A = nt; B = -15; C = 3; D = -14; E = 16; F = -5; G = nt; H = nt

21. COc1ccc2sc(-c3ccc(N(C)C)cc3)c(C#Cc3cncn3C)c2c1
  A = nt; B = -19; C = 5; D = -24; E = 38*; F = -24; G = -1; H = 37*

22. CC(C)CNC(=O)c1cccc(NC(=O)c2ccc(Cl)c([N+](=O)[O-])c2)c1
  A = 6; B = nt; C = 2; D = 2; E = 32*; F = -5; G = 11; H = 15

23. Cc1ccccc1CNC(=O)Cc1ccccc1[N+](=O)[O-]
  A = 22; B = nt; C = 2; D = 0; E = 1; F = 1; G = nt; H = nt

24. COc1cccc(C(=O)Nc2cccc(C(=O)NCC(C)C)c2)c1
  A = 12; B = 12; C = 0; D = 2; E = 9; F = -2; G = nt; H = nt

25. Cc1ccccc1CNC(=O)c1ccc(Cl)c([N+](=O)[O-])c1
  A = 29; B = nt; C = -2; D = 1; E = 31*; F = 2; G = 20*; H = 42*

26. Cc1noc(C)c1NC(=O)N(C)C[C@@H]1Oc2ccc(NC(=O)CCN3CCOCC3)cc2C(=O)N([C@H](C)CO)C[C@@H]1C
  A = nt; B = -5; C = nt; D = nt; E = nt; F = nt; G = nt; H = nt

27. CCOC(=O)c1sc(=S)[nH]c1C
  A = nt; B = nt; C = -3; D = nt; E = 43*; F = nt; G = 10; H = 31*

2 successive compounds from above:
Abbreviations – A = NALP1 yeast inh; B = UUG fidelity; C = MC4R ag barr; D = HDAC3 inhib; E = MC4R antagonist; F = ALR inh; G = cAMP nonselect; H = MC4R antag conf
26. Cc1noc(C)c1NC(=O)N(C)C[C@@H]1Oc2ccc(NC(=O)CCN3CCOCC3)cc2C(=O)N([C@H](C)CO)C[C@@H]1C
  A = nt; B = -5; C = nt; D = nt; E = nt; F = nt; G = nt; H = nt

27. CCOC(=O)c1sc(=S)[nH]c1C
  A = nt; B = nt; C = -3; D = nt; E = 43*; F = nt; G = 10; H = 31*
